The source of these data is patent publication US5849326A, “Method for treating neuronal diseases via administration of 2-acylaminopropanol derivatives” (Seikagaku Corporation, priority 1993, dated 1998).

A short description of this data set: in vivo. As to conditions: mouse, ip.
`CCCCCCCCCC(=O)N[C@H](CN1CCOCC1)[C@@H](O)c1ccccc1` (relative stereo) [DL-erythro-PDMP, 1-phenyl-2-decanoylamino-3-morpholino-1-propanol]: the LD50 is about 700 mg/kg. As to `CCCCCCCCCC(=O)N[C@H](CN1CCOCC1)[C@H](O)c1ccccc1` (relative stereo) [DL-threo-PDMP, 1-phenyl-2-decanoylamino-3-morpholino-1-propanol], the median lethal dose (LD50) is about 250 mg/kg. Take `CCCCCCCCCC(=O)N[C@@H](CN1CCOCC1)[C@@H](O)c1ccccc1` [L-threo-PDMP, 1-phenyl-2-decanoylamino-3-morpholino-1-propanol]: the LD50 was 350 mg/kg.
